Assay results as given in BindingDB's records for doi:10.1021/jm00051a003 (University of Washington, 1995).

Test: Tested for the binding affinity against the Delta opioid receptor in guinea pig brain using [3H]DPDPE

Which IC50 does the source give for `Oc1ccc2c3c1O[C@H]1[C@H](O)CC[C@@]4(O)[C@@H](C2)N(CC2CC2)CC[C@]314` here?
The IC50 was 26 nM.
